One data set addresses Rat SERT (Rattus norvegicus, UniProt P31652). The experiment in a line: biochemical.
A short description of data set [1]: Plasma and brain unbound concentrations by LC/MS/MS. The conditions noted are these: rat, intraperitoneal, 75 min post-dosing.

Protein sequences, listed by entry. Tags and fused reporters are not part of them.
UniProt P31652, whole entry: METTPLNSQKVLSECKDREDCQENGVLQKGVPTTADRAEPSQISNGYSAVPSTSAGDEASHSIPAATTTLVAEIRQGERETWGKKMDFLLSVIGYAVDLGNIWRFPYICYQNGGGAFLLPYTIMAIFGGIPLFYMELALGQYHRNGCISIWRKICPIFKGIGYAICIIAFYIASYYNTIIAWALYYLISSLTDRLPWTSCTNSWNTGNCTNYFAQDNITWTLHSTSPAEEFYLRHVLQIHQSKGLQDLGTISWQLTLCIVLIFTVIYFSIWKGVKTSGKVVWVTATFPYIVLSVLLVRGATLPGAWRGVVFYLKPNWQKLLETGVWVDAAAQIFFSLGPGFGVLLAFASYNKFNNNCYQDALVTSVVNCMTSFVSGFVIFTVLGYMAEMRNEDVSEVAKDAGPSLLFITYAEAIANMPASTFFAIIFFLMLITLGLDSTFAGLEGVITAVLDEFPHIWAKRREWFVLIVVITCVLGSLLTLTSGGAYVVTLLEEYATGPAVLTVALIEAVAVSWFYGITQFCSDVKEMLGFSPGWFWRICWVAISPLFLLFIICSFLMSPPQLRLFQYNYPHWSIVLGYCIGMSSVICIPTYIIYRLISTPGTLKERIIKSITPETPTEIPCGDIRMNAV

One may read the Ki as a measure of affinity in units of concentration, obtained from inhibition or displacement. Higher therefore signals lower affinity. At Rat SERT, `CNCC[C@@H](Oc1ccccc1C)c1ccccc1` [atomoxetine] had a Ki of 15.8 nM. This lies in the double-digit nanomolar range.
In the case of `CNCCC(Oc1ccc(C(F)(F)F)cc1)c1ccccc1` (stereo not shown) [fluoxetine], the concentration at 75 min is 1.94 ± 1.2 ng/g in data set [1] (brain, 1 mg/kg, [Brain]unbound, fluoxetine 1 mg/kg, − esreboxetine − morphine); 1.55 ± 0.6 ng/g in data set [1] (brain, [Brain]unbound, fluoxetine 1 mg/kg + esreboxetine 10 + morphine 1 mg/kg); 1.36 ± 0.6 ng/g in data set [1] (brain, [Brain]unbound, fluoxetine 1 mg/kg + morphine 1 mg/kg); 1.73 ± 1.5 ng/mL in data set [1] (plasma, 1 mg/kg, [Plasma]unbound, fluoxetine 1 mg/kg, − esreboxetine − morphine); 1.51 ± 0.5 ng/mL in data set [1] (plasma, [Plasma]unbound, fluoxetine 1 mg/kg + esreboxetine 10 + morphine 1 mg/kg); 0.96 ± 0.3 ng/mL in data set [1] (plasma, [Plasma]unbound, fluoxetine 1 mg/kg + morphine 1 mg/kg).

For the origin of these results see paper PMC3787017, “Relative Contributions of Norepinephrine and Serotonin Transporters to Antinociceptive Synergy between Monoamine Reuptake Inhibitors and Morphine in the Rat Formalin Model” (PLoS ONE, 2013).
